Values of other authors in patent US5238927A (priority 1992, dated 1993).

System: carboxy, choline and other esterases
Details: compared within the H-series

NC(=O)c1cc[n+](COC[n+]2ccccc2C=NO)cc1 [HI-6, 1-(2-hydroxyiminomethylpyridinium)-2-(4-carboxyamidopyridinium)-dimethyl ether dichloride]
effectiveness in the reactivation of esterases inhibited by organophosphorus nerve toxins: most effective compound of the H-series
